# PMC10188607, “Quaternization of high molecular weight chitosan for increasing intestinal drug absorption using Caco-2 cells as an in vitro intestinal model” (Scientific Reports, 2023)
# Protein sequences, listed by entry. Tags and fused reporters are not part of them.
# UniProt P08183, whole entry: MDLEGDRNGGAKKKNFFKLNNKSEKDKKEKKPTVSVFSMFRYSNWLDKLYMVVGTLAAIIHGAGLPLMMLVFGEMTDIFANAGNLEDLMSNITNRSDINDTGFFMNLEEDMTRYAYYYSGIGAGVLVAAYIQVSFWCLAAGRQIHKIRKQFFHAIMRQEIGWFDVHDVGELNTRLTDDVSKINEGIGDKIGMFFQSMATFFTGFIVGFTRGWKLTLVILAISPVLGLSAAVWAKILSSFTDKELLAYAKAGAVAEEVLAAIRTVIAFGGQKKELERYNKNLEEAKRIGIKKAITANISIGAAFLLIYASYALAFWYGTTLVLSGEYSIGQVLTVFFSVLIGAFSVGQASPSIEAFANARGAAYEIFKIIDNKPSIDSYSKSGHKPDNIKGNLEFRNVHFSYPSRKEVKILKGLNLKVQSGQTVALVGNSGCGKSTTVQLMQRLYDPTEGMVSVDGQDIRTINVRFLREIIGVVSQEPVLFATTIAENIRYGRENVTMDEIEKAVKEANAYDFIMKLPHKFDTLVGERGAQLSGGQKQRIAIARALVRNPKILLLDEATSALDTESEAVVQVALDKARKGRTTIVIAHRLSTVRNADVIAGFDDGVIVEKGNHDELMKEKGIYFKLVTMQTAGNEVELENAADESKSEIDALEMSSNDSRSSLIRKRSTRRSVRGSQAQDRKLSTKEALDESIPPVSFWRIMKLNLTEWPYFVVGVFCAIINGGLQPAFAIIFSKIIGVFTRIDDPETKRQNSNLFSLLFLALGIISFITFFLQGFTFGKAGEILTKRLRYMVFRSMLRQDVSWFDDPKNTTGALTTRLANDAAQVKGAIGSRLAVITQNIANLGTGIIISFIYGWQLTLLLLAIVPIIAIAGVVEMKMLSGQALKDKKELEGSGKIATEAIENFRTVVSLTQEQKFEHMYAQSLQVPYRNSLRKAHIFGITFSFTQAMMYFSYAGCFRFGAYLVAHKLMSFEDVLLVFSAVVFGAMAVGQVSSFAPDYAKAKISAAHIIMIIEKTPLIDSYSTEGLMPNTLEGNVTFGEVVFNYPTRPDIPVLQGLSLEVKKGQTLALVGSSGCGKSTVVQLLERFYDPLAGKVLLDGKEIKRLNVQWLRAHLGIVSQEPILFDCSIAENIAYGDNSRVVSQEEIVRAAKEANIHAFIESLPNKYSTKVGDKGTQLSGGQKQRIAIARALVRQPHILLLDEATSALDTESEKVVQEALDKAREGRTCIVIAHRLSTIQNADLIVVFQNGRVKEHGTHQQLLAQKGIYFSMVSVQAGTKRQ
# Target: P-gp (Homo sapiens, UniProt P08183)
# Assay: Bidirectional transport of [^3H]-digoxin across Caco-2 monolayers
# Settings: [^3H]-digoxin alone (non-treated monolayers)
smiles,measurement,value
C[C@H]1O[C@@H](O[C@H]2[C@@H](O)C[C@H](O[C@H]3[C@@H](O)C[C@H](O[C@H]4CC[C@@]5(C)[C@H](CC[C@@H]6[C@@H]5C[C@@H](O)[C@]5(C)[C@@H](C7=CC(=O)OC7)CC[C@]65O)C4)O[C@@H]3C)O[C@@H]2C)C[C@H](O)[C@@H]1O [[^3H]-digoxin],efflux ratio (ER) value,10.1
